Reference: BindingDB's records for doi:10.1016/j.bioorg.2016.11.007 (University of Karachi, 2017)

Protein sequences, listed by entry. Tags and fused reporters are not part of them. Lines headed by an entry give the natural chain unless they say otherwise; changes in a name come on top.
UniProt P07650: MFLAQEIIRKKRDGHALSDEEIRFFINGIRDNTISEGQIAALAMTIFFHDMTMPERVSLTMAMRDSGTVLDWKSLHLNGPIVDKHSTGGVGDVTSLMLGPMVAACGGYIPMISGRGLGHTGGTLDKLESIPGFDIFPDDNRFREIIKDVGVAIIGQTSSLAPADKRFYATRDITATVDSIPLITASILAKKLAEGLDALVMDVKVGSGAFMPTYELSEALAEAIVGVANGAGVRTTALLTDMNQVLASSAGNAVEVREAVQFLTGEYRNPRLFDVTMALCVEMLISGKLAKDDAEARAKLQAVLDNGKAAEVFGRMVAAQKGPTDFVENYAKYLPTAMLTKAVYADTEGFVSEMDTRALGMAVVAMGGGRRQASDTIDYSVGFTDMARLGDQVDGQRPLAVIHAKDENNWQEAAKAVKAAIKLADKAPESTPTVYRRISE

Biological target: Thymidine phosphorylase (Escherichia coli (strain K12), UniProt P07650)
Assay: Kinetic Assay
Details: 30 °C
Method: In kinetic assay, the TP enzyme (0.058 U/well) was incu- bated with different concentrations of inhibitor (0.5 0.001 mM) for 10 min at 30 C. The reaction was then initiated by adding different concentrations of substrate (0.1875 1.5 mM). Degradation of thymidine was measured continuously at 290 nm for 10 min on ELISA plate reader [Bera et al., Chem. Biol. Drug Des., 82:351-360].

## O=c1[nH]c(=O)c2cc[nH]c2[nH]1 [1,7-Dihydro-pyrrolo[2,3-d]pyrimidine-2,4-dione]
  Ki: 49.1 µM
